# In patent US20240150377A1, “MODULATORS OF CYSTIC FIBROSIS TRANSMEMBRANE CONDUCTANCE REGULATOR” (VERTEX PHARMACEUTICALS INCORPORATED, priority 2020, published 2024):
# Sequences of proteins named here, by UniProt entry; tags and fusion partners are left off. A line that says so, or that is headed by a name, gives the form on record, which may keep a tag or linker.
# UniProt P13569, with tags, fused parts or gaps DEL508-508: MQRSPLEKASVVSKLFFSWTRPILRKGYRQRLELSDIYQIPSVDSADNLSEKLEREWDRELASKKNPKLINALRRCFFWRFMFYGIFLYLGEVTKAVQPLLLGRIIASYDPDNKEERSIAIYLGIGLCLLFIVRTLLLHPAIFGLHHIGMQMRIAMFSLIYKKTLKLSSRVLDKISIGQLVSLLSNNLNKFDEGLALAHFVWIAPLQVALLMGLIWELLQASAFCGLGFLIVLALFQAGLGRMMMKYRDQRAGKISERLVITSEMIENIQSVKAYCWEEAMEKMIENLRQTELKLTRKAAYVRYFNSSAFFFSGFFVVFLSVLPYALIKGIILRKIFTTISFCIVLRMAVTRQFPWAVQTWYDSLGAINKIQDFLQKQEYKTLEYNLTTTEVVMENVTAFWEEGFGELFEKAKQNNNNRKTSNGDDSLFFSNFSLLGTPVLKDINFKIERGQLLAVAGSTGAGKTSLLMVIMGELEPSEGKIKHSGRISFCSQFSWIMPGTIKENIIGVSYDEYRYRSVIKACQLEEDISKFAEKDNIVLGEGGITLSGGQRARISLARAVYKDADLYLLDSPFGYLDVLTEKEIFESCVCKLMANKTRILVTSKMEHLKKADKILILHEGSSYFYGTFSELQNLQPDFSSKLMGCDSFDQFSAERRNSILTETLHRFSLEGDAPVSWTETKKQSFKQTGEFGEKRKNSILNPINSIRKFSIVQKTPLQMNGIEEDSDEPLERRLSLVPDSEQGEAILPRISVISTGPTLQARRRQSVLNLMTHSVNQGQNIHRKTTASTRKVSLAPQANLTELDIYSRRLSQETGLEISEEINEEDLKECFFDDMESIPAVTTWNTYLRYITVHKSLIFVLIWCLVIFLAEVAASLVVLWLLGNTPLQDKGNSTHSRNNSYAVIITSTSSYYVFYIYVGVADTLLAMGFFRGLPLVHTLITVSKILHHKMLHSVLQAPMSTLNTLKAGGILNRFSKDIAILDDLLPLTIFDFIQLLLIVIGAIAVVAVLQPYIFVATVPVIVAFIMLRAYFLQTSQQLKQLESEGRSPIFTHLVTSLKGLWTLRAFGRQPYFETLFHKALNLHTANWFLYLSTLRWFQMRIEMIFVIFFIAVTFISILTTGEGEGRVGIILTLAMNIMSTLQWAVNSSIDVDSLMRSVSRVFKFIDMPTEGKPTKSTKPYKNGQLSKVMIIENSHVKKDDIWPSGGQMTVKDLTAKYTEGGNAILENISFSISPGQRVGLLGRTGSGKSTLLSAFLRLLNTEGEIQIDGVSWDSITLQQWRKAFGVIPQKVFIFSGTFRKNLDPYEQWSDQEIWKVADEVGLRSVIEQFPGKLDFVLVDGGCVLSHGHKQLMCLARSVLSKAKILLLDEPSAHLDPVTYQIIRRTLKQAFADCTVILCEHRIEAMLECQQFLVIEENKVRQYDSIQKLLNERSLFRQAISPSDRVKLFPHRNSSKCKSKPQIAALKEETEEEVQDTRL
# Target: T1, CFTR (Homo sapiens, UniProt P13569, DEL508-508)
# T1 construct: endogenous in cells; host or cells: primary human bronchial epithelial cells from CF subjects (F508del/MF-HBE), differentiated at air-liquid interface
# Test: HBE assay: Ussing chamber assay of CFTR-mediated short-circuit currents
# Assay type: cell-based
# Conditions: read-out: HBE Activity at 10 μM (%)
# Method: 1. Ussing Chamber Assay of CFTR-Mediated Short-Circuit Currents
# Ussing chamber experiments were performed using human bronchial epithelial (HBE) cells derived from CF subjects heterozygous for F508del and a minimal function CFTR mutation (F508del/MF-HBE) and cultured as previously described (Neuberger T, Burton B, Clark H, Van Goor F Methods Mol Biol 2011:741:39-54). After four days the apical media was removed, and the cells were grown at an air liquid interface for >14 days prior to use.
# To isolate the CFTR-mediated short-circuit (ISC) current, F508del/MF-HBE grown on Costar® Snapwell™ cell culture inserts were mounted in an Ussing chamber and the transepithelial ISC was measured under voltage-clamp recording conditions (Vhold=0 mV) at 37° C. […] The CFTR-mediated ISC (μA/cm^2) for each condition was determined from the peak forskolin response to the steady-state current following inhibition. […]
# The activity of the CFTR corrector compounds on the CFTR-mediated ISC was determined in Ussing chamber studies as described above. […]
# To isolate the CFTR-mediated short-circuit (ISC) current, F508del/MF-HBE grown on Costar® Snapwell™ cell culture inserts were mounted in an Ussing chamber and the transepithelial ISC was measured under voltage-clamp recording conditions (Vhold=0 mV) at 37° C. […]
row,activation at 10 µM,Structure (SMILES)
1,> 60%,COC[C@H](C(C)C)N(C)c1cncc(CN2C(=O)c3cccc(c3)S(=O)(=O)Nc3nc(cc(-c4c(C)cccc4C)n3)OC[C@H]2CC(C)(C)C)n1 [Compound 1530]
2,> 60%,Cc1cccc(C)c1-c1cc2nc(n1)NS(=O)(=O)c1cccc(c1)C(=O)N(Cc1cncc(N3CC[C@@H]3C(C)C)n1)[C@H](CC(C)(C)C)CO2 [Compound 1544]
